Source: the NIST ThermoML archive (doi:10.1016/j.jct.2015.02.007)

Test: xn = mol fraction of the nth substance listed
Conditions: 100 kPa, Liquid; for mass density: Vibrating tube method; for speed of sound: Pulse-echo method

OCCOCCOCCOCCO [tetraethylene glycol] + O
Conditions	mass density [kg/m3]	speed of sound [m/s]
278.15 K, x1 = 0.0116	1018.94	–
278.15 K, x1 = 0.0203	1031.27	–
278.15 K, x1 = 0.0406	1055.35	–
278.15 K, x1 = 0.0605	1073.22	–
278.15 K, x1 = 0.0806	1086.77	–
278.15 K, x1 = 0.1024	1097.77	–
278.15 K, x1 = 0.1511	1113.07	–
278.15 K, x1 = 0.2006	1121.28	–
278.15 K, x1 = 0.25	1125.88	–
278.15 K, x1 = 0.3012	1128.73	–
278.15 K, x1 = 0.4024	1131.71	–
278.15 K, x1 = 0.4964	1133.14	–
278.15 K, x1 = 0.5985	1134.11	–
278.15 K, x1 = 0.7018	1134.76	–
278.15 K, x1 = 0.759	1135.01	–
278.15 K, x1 = 0.8201	1135.22	–
278.15 K, x1 = 0.8353	1135.27	–
278.15 K, x1 = 0.8804	1135.4	–
278.15 K, x1 = 0.9237	1135.52	–
278.15 K, x1 = 0.9719	1135.68	–
278.15 K, x1 = 1	1135.81	–
283.15 K, x1 = 0.0116	1018.15	–
283.15 K, x1 = 0.0203	1030.12	–
283.15 K, x1 = 0.0406	1053.44	–
283.15 K, x1 = 0.0605	1070.73	–
283.15 K, x1 = 0.0806	1083.86	–
283.15 K, x1 = 0.1024	1094.55	–
283.15 K, x1 = 0.1511	1109.47	–
283.15 K, x1 = 0.2006	1117.51	–
283.15 K, x1 = 0.25	1122.06	–
283.15 K, x1 = 0.3012	1124.88	–
283.15 K, x1 = 0.4024	1127.86	–
283.15 K, x1 = 0.4964	1129.28	–
283.15 K, x1 = 0.5985	1130.23	–
283.15 K, x1 = 0.7018	1130.86	–
283.15 K, x1 = 0.759	1131.1	–
283.15 K, x1 = 0.8201	1131.3	–
283.15 K, x1 = 0.8353	1131.35	–
283.15 K, x1 = 0.8804	1131.46	–
283.15 K, x1 = 0.9237	1131.58	–
283.15 K, x1 = 0.9719	1131.73	–
283.15 K, x1 = 1	1131.85	–
288.15 K, x1 = 0.0005	–	1469
288.15 K, x1 = 0.0009	–	1471.3
288.15 K, x1 = 0.0021	–	1477.2
288.15 K, x1 = 0.0036	–	1485.1
288.15 K, x1 = 0.0058	–	1496.6
288.15 K, x1 = 0.0082	–	1508.9
288.15 K, x1 = 0.0116	1017.08	–
288.15 K, x1 = 0.0174	–	1554
288.15 K, x1 = 0.0203	1028.71	–
288.15 K, x1 = 0.0206	–	1569.1
288.15 K, x1 = 0.0244	–	1586.3
288.15 K, x1 = 0.0292	–	1606.5
288.15 K, x1 = 0.0332	–	1622.3
288.15 K, x1 = 0.0388	–	1642.9
288.15 K, x1 = 0.0406	1051.33	–
288.15 K, x1 = 0.0427	–	1656
288.15 K, x1 = 0.0466	–	1668.2
288.15 K, x1 = 0.0518	–	1683.2
288.15 K, x1 = 0.0579	–	1698.5
288.15 K, x1 = 0.0605	1068.11	–
288.15 K, x1 = 0.0648	–	1713.3
288.15 K, x1 = 0.0698	–	1722.6
288.15 K, x1 = 0.0751	–	1731.1
288.15 K, x1 = 0.0804	–	1738.4
288.15 K, x1 = 0.0806	1080.87	–
288.15 K, x1 = 0.0819	–	1740.2
288.15 K, x1 = 0.0874	–	1746.4
288.15 K, x1 = 0.0942	–	1752.4
288.15 K, x1 = 0.0999	–	1756.3
288.15 K, x1 = 0.1024	1091.26	–
288.15 K, x1 = 0.1029	–	1758.1
288.15 K, x1 = 0.1068	–	1760
288.15 K, x1 = 0.1133	–	1762.4
288.15 K, x1 = 0.1137	–	1762.5
288.15 K, x1 = 0.1202	–	1764
288.15 K, x1 = 0.1308	–	1765
288.15 K, x1 = 0.1439	–	1764.3
288.15 K, x1 = 0.1511	1105.83	–
288.15 K, x1 = 0.1556	–	1762.3
288.15 K, x1 = 0.1791	–	1756.2
288.15 K, x1 = 0.2001	–	1749.3
288.15 K, x1 = 0.2006	1113.73	–
288.15 K, x1 = 0.2146	–	1744.4
288.15 K, x1 = 0.2391	–	1736
288.15 K, x1 = 0.25	1118.2	–
288.15 K, x1 = 0.284	–	1721.3
288.15 K, x1 = 0.3012	1121	–
288.15 K, x1 = 0.3449	–	1703.6
288.15 K, x1 = 0.4024	1123.97	–
288.15 K, x1 = 0.424	–	1684.5
288.15 K, x1 = 0.4964	1125.4	–
288.15 K, x1 = 0.5705	–	1660.6
288.15 K, x1 = 0.5985	1126.33	–
288.15 K, x1 = 0.7018	1126.93	–
288.15 K, x1 = 0.7053	–	1647.7
288.15 K, x1 = 0.759	1127.16	–
288.15 K, x1 = 0.8201	1127.35	–
288.15 K, x1 = 0.8249	–	1639.8
288.15 K, x1 = 0.8353	1127.39	–
288.15 K, x1 = 0.8804	1127.51	–
288.15 K, x1 = 0.9027	–	1636.2
288.15 K, x1 = 0.9237	1127.62	–
288.15 K, x1 = 0.9471	–	1634.8
288.15 K, x1 = 0.9719	1127.77	–
288.15 K, x1 = 1	1127.88	1633.1
293.15 K, x1 = 0.0003	–	1484
293.15 K, x1 = 0.0008	–	1486.8
293.15 K, x1 = 0.0017	–	1492
293.15 K, x1 = 0.0031	–	1499.2
293.15 K, x1 = 0.0052	–	1510.5
293.15 K, x1 = 0.0084	–	1527.1
293.15 K, x1 = 0.012	–	1545.1
293.15 K, x1 = 0.0157	–	1562.1
293.15 K, x1 = 0.0215	–	1587.8
293.15 K, x1 = 0.0254	–	1603.5
293.15 K, x1 = 0.0304	–	1622.3
293.15 K, x1 = 0.0352	–	1638.8
293.15 K, x1 = 0.0399	–	1653.3
293.15 K, x1 = 0.0462	–	1671.1
293.15 K, x1 = 0.0524	–	1686
293.15 K, x1 = 0.0583	–	1698.6
293.15 K, x1 = 0.0663	–	1712.8
293.15 K, x1 = 0.0704	–	1719
293.15 K, x1 = 0.0764	–	1726.9
293.15 K, x1 = 0.0808	–	1731.8
293.15 K, x1 = 0.0831	–	1734.2
293.15 K, x1 = 0.0858	–	1736.6
293.15 K, x1 = 0.0892	–	1739.5
293.15 K, x1 = 0.0932	–	1742.3
293.15 K, x1 = 0.0947	–	1743.3
293.15 K, x1 = 0.1007	–	1746.6
293.15 K, x1 = 0.1017	–	1747.1
293.15 K, x1 = 0.1087	–	1749.8
293.15 K, x1 = 0.1105	–	1750.3
293.15 K, x1 = 0.1161	–	1751.5
293.15 K, x1 = 0.1187	–	1752
293.15 K, x1 = 0.1337	–	1752.5
293.15 K, x1 = 0.143	–	1751.5
293.15 K, x1 = 0.1574	–	1748.7
293.15 K, x1 = 0.1704	–	1745.1
293.15 K, x1 = 0.2166	–	1729.1
293.15 K, x1 = 0.2475	–	1717.8
293.15 K, x1 = 0.2809	–	1706.4
293.15 K, x1 = 0.3333	–	1690.5
293.15 K, x1 = 0.396	–	1674.7
293.15 K, x1 = 0.4747	–	1659
